Results taken from patent US8445538B2, “Glucagon receptor antagonist compounds” (Merck Sharp & Dohme Corp., priority 2008, dated 2013).

The chains behind the UniProt entries cited, without tags or fusion partners. Residues count along the entry.
UniProt P47871, 26-477 limits assumed: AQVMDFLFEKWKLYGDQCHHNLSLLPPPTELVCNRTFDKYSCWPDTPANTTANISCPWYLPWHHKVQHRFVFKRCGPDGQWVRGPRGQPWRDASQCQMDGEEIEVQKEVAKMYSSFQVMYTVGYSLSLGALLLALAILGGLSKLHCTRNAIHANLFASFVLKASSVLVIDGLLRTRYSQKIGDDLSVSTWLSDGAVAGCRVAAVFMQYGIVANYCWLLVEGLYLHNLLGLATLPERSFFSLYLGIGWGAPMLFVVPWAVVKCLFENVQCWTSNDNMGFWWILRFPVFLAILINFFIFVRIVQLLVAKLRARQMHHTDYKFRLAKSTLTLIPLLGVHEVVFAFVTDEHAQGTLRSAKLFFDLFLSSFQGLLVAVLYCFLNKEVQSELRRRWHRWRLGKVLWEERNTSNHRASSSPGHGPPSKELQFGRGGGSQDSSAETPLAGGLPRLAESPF

Molecular target: human glucagon receptor (Homo sapiens, UniProt P47871)
Test: Glucagon Receptor Binding Assay (125I-glucagon, SPA, CHO cell membranes)
Settings: 125I-Glucagon binding to membranes of CHO cells expressing cloned human glucagon receptor; more active isomer of indicated compounds
Protocol: Glucagon Receptor Binding Assay
A stable CHO (Chinese hamster ovary) cell line expressing cloned human glucagon receptor was maintained as described (Chicchi, et. al. J Biol Chem 272, 7765-9 (1997); Cascieri, et. al. J Biol Chem 274, 8694-7 (1999)). To determine antagonistic binding affinity of compounds, 0.001-0.003 mg of cell membranes from these cells were pre-incubated with 0.100 mg WGA-coated PVT SPA beads (Amersham) for 20 minutes at room temperature in 25 μL of a buffer containing 50 mM Tris-HCl (pH 7.5), 5 mM MgCl2, 2 mM EDTA, 0.1% BSA and 3% glycerol in Costar 384 well plates with clear bottoms (#3706). Next, 25 μL of ^125I-Glucagon (New England Nuclear, Mass.) (1×10^−14 mol per well) and either 1 μL solutions of test compounds or 0.001 mM unlabeled glucagon or DMSO were added and mixed. After 4-12 hours incubation at room temperature, the radioactivity bound to the cell membranes was determined in a radioactive emission detection counter (Wallac-Microbeta). Data were analyzed using the Data Analyzer software program of Merck & Co., Inc. The IC50 values were calculated using non-linear regression analysis assuming single-site competition.

CCCC(c1ccc(C(=O)NCCC(=O)O)cc1)C(c1ccc(Cl)cc1)c1ccc(Cl)c2ccccc12 (stereo not shown) showed an IC50 of 1.8 nM.
